Source: patent US20150272951A1, “COMPOUNDS FOR THE TREATMENT OF LYSOSOMAL STORAGE DISEASES” (The Hospital for Sick Children, priority 2010, published 2015)

The chains behind the UniProt entries cited, without tags or fusion partners. Where a name states a change or a piece, a line headed by the entry shows the natural chain unless it says otherwise. A line that says so, or that is headed by a name, gives the form on record, which may keep a tag or linker. Residues count along the entry.
UniProt P06865, with tags, fused parts or gaps limits assumed: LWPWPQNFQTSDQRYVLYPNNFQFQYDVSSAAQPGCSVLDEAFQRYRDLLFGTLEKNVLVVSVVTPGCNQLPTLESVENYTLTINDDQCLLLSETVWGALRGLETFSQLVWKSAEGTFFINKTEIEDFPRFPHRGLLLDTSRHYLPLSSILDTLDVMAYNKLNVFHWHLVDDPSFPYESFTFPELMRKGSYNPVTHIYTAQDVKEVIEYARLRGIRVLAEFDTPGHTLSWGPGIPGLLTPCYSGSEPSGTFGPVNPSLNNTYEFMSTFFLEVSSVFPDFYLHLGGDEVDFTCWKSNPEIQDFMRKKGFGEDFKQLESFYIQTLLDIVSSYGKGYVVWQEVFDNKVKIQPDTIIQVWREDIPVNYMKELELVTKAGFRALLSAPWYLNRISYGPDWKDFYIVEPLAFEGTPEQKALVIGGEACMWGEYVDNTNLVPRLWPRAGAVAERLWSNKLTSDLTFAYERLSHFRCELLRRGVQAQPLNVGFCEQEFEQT
UniProt P06865, 89-529 limits assumed: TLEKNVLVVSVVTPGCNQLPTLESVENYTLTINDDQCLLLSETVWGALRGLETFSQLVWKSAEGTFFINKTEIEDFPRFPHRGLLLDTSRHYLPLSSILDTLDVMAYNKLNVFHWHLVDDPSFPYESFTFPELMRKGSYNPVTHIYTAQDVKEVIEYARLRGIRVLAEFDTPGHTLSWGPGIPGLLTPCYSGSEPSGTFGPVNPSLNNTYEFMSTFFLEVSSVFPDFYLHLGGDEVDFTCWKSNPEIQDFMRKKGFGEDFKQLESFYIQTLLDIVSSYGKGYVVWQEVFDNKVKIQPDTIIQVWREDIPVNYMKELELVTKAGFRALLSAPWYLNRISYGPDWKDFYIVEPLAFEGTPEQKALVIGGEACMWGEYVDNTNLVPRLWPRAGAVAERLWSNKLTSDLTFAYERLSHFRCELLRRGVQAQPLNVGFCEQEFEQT
UniProt P07686, with tags, fused parts or gaps limits assumed: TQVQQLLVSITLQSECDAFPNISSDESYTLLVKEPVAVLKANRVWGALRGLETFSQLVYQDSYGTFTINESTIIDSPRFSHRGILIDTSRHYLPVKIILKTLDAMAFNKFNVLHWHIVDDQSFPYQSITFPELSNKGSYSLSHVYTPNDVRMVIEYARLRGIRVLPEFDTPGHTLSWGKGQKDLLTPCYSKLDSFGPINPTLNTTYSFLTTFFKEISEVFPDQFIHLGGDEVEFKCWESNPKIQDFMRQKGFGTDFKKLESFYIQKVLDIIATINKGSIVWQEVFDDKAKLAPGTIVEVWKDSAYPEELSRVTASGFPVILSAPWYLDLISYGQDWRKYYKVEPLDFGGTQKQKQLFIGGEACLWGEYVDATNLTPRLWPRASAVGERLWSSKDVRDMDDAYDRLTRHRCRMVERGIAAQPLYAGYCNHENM
UniProt P07686, 122-311 limits assumed: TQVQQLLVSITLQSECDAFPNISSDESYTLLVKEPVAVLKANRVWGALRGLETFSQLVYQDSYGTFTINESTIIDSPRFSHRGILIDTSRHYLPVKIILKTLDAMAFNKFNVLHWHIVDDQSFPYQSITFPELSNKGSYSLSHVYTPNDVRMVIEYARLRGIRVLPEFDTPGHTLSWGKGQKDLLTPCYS
UniProt P07686, 315-556 limits assumed: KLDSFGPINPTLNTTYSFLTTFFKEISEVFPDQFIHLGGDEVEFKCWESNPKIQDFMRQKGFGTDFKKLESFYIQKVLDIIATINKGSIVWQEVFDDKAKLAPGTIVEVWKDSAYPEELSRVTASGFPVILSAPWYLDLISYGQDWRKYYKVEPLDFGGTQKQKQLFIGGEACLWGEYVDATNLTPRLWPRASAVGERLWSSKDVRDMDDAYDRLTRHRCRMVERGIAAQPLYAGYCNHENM

Assays:
[1] = target: Hex A (Homo sapiens, UniProt P06865+P07686); assay: Hex A inhibition (IC50 from dose response curves of Hex A residual activity);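 also: remaining Hex A enzyme activity recorded across rising inhibitor doses, with dose response curves run at pH 6.5 and again at pH 4.5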
[2] = target: mutant Hex A (Homo sapiens, UniProt P06865+P07686)

Compound: CCc1nc(N)nc(N)c1-c1ccc(OC)cc1
- IC50 ([1]; read-out: IC50 (μM ± Err), Hex A inhibition, values determined in Example 3, pH not given): 23 µM
- IC50 ([1]; without error, pH not stated): 23.1 µM
- EC50 ([2]; Hex A rescue, determined from graphs of FIGS. 5-7): 7.2 µM
- Max Increase ([2]; maximum increase in Hex A activity relative to untreated cells (=1)): 1.4
- Range of Increase ([2]; range of increase in Hex A activity): 4

Where two headings read alike, the source gives them in different places.
